Where two headings read alike, the source gives them in different places.
What was measured:
[1] = tested on: morphine-induced locomotion; details: morphine 10 mg/kg s.c.
morphine-dependent mice = details: 2 hours after 20 mg/kg morphine on day 7

In the case of `CN1CC[C@]23c4c5ccc(O)c4O[C@H]2[C@@H](O)C=C[C@H]3[C@H]1C5` [morphine], the “locomotor activity, minute 30 of BL vs minutes 56-60 post-morphine” value [1] is reported as “increased locomotor activity”.

For `C=CCN1CC[C@]23c4c5ccc(O)c4O[C@H]2C(=O)CC[C@@]3(O)[C@H]1C5` [naloxone, 17-Allyl-4,5α-epoxy-3,14-dihydroxymorphinan-6-one], the “number of jumps in 30 minutes vs control group” value (morphine-dependent mice; 1 mg/kg i.p.) was “jumped significantly more than the control group” and the “number of jumps in 30 minutes vs control group” value (morphine-dependent mice; 5 mg/kg i.p.) was “jumped significantly more than the control group”.

Source: US20230201369A1 (THE TEXAS A&M UNIVERSITY SYSTEM, priority 2020, published 2023)
